Data published in patent publication US20230116728A1, “SECONDARY BATTERY, BATTERY PACK, VEHICLE, AND STATIONARY POWER SUPPLY” (KABUSHIKI KAISHA TOSHIBA, priority 2021, published 2023).

Test: Measurement of solubility of antioxidant in water
Assay type: physicochemical
Settings: room temperature (23° C.), 10 g reagent charged, ultrasonic 10 minutes, insoluble components weighed

solubility in 100 mL of water: 0.5 g
Substance: (±)-α-tocopherol
